Several values for one entry are separate records, joined by “and”; a condition that tells them apart may be missing. Equal values may be shown once. Read-outs that look alike come from different tables or passages of the source.
Tests used:
[1] = tested on: HBV in HepG2.2.15 cells; settings: for inhibition of HBV DNA secretion in combination: Chou-Talalay; for Relavive secreted HBV DNA level(Folds), Sample1-3: individual samples
[2] = tested on: HBV in HepG2.2.15 cells; settings: for inhibition of intracellular HBV DNA levels in combination: Chou-Talalay; for Relavive intracellular HBV DNA level(Folds), Sample1-3: individual samples
[3] = 0.1–10 μM ciclopirox combined with 1 μM ETV
[4] = 0.1–10 μM ciclopirox combined with 1 μM TDF
[5] = 0.1 μM (in combinations: ciclopirox concentration)
[6] = 0.2 μM (in combinations: ciclopirox concentration)
[7] = 0.5 μM (in combinations: ciclopirox concentration)
[8] = 1 μM (in combinations: ciclopirox concentration)
[9] = 2 μM (in combinations: ciclopirox concentration)
[10] = 5 μM (in combinations: ciclopirox concentration)
[11] = 10 μM (in combinations: ciclopirox concentration)

Compound	Relavive secreted HBV DNA level(Folds), AVERAGE [1, 5]	Relavive secreted HBV DNA level(Folds), Sample1-3 [1, 5]	Relavive secreted HBV DNA level(Folds), AVERAGE [1, 6]	Relavive secreted HBV DNA level(Folds), Sample1-3 [1, 6]	Relavive secreted HBV DNA level(Folds), AVERAGE [1, 7]	Relavive secreted HBV DNA level(Folds), Sample1-3 [1, 7]	Relavive secreted HBV DNA level(Folds), AVERAGE [1, 8]	Relavive secreted HBV DNA level(Folds), Sample1-3 [1, 8]	Relavive secreted HBV DNA level(Folds), AVERAGE [1, 9]	Relavive secreted HBV DNA level(Folds), Sample1-3 [1, 9]	Relavive secreted HBV DNA level(Folds), AVERAGE [1, 10]	Relavive secreted HBV DNA level(Folds), Sample1-3 [1, 10]	Relavive secreted HBV DNA level(Folds), AVERAGE [1, 11]	Relavive secreted HBV DNA level(Folds), Sample1-3 [1, 11]	Relavive intracellular HBV DNA level(Folds), AVERAGE [2, 5]	Relavive intracellular HBV DNA level(Folds), Sample1-3 [2, 5]	Relavive intracellular HBV DNA level(Folds), AVERAGE [2, 6]	Relavive intracellular HBV DNA level(Folds), Sample1-3 [2, 6]	Relavive intracellular HBV DNA level(Folds), AVERAGE [2, 7]	Relavive intracellular HBV DNA level(Folds), Sample1-3 [2, 7]	also measured
Cc1cc(C2CCCCC2)n(O)c(=O)c1 [Ciclopirox, 6-cyclohexyl-1-hydroxy-4-methyl-2(1 H)-pyridone]	–	–	–	–	–	–	–	–	–	–	–	–	–	–	–	–	–	–	–	–	inhibition of HBV DNA secretion in combination [1, 3]: synergistic inhibition; inhibition of HBV DNA secretion in combination [1, 4]: synergistic inhibition; inhibition of intracellular HBV DNA levels in combination [2, 3]: synergistic inhibition; inhibition of intracellular HBV DNA levels in combination [2, 4]: synergistic inhibition
C=C1[C@H](CO)[C@@H](O)C[C@@H]1n1cnc2c(=O)[nH]c(N)nc21 [ETV, entecavir]	1.0783 Folds	1.0727 Folds and 1.1087 Folds and 1.0536 Folds	0.7059 Folds	0.7066 Folds and 0.7053 Folds and 0.7059 Folds	0.5143 Folds	0.5200 Folds and 0.5166 Folds and 0.5062 Folds	0.2012 Folds	0.2707 Folds and 0.1484 Folds and 0.1843 Folds	0.1944 Folds	0.1993 Folds and 0.1758 Folds and 0.2081 Folds	0.0746 Folds	0.0889 Folds and 0.0624 Folds and 0.0724 Folds	0.0414 Folds	0.0303 Folds and 0.0511 Folds and 0.0429 Folds	0.9787 Folds	0.9427 Folds and 1.02 Folds and 0.9736 Folds	0.7931 Folds	0.7871 Folds and 0.8763 Folds and 0.7159 Folds	0.4576 Folds	0.45 Folds and 0.4365 Folds and 0.4862 Folds	Relavive intracellular HBV DNA level(Folds), AVERAGE [2, 8]: 0.3876 Folds; Relavive intracellular HBV DNA level(Folds), Sample1-3 [2, 8]: 0.3707 Folds and 0.4077 Folds and 0.3843 Folds; Relavive intracellular HBV DNA level(Folds), AVERAGE [2, 9]: 0.1647 Folds; Relavive intracellular HBV DNA level(Folds), Sample1-3 [2, 9]: 0.1693 Folds and 0.1305 Folds and 0.1941 Folds; Relavive intracellular HBV DNA level(Folds), AVERAGE [2, 10]: 0.1146 Folds; Relavive intracellular HBV DNA level(Folds), Sample1-3 [2, 10]: 0.07091 Folds and 0.1489 Folds and 0.1239 Folds; Relavive intracellular HBV DNA level(Folds), AVERAGE [2, 11]: 0.0442 Folds; Relavive intracellular HBV DNA level(Folds), Sample1-3 [2, 11]: 0.02841 Folds and 0.06145 Folds and 0.04287 Folds
C[C@H](Cn1cnc2c(N)ncnc21)OCP(=O)(O)O [TDF, tenofovir]	0.9790 Folds	0.9655 Folds (2×) and 1.0059 Folds	0.6990 Folds	0.6085 Folds and 0.7329 Folds and 0.7556 Folds	0.5046 Folds	0.5016 Folds and 0.5166 Folds and 0.4955 Folds	0.2157 Folds	0.2232 Folds and 0.2185 Folds and 0.2055 Folds	0.1277 Folds	0.1185 Folds and 0.149 Folds and 0.1155 Folds	0.0725 Folds	0.05055 Folds and 0.07854 Folds and 0.08856 Folds	0.0465 Folds	0.03155 Folds and 0.06155 Folds and 0.04655 Folds	0.9955 Folds	0.9846 Folds and 1.063 Folds and 0.9389 Folds	0.7990 Folds	0.7755 Folds and 0.8669 Folds and 0.7546 Folds	0.5046 Folds	0.5105 Folds and 0.5127 Folds and 0.4905 Folds	Relavive intracellular HBV DNA level(Folds), AVERAGE [2, 8]: 0.3157 Folds; Relavive intracellular HBV DNA level(Folds), Sample1-3 [2, 8]: 0.3245 Folds and 0.3181 Folds and 0.3045 Folds; Relavive intracellular HBV DNA level(Folds), AVERAGE [2, 9]: 0.2277 Folds; Relavive intracellular HBV DNA level(Folds), Sample1-3 [2, 9]: 0.2406 Folds and 0.2199 Folds and 0.2224 Folds; Relavive intracellular HBV DNA level(Folds), AVERAGE [2, 10]: 0.0725 Folds; Relavive intracellular HBV DNA level(Folds), Sample1-3 [2, 10]: 0.06546 Folds and 0.09564 Folds and 0.05655 Folds; Relavive intracellular HBV DNA level(Folds), AVERAGE [2, 11]: 0.0465 Folds; Relavive intracellular HBV DNA level(Folds), Sample1-3 [2, 11]: 0.04458 Folds and 0.0513 Folds and 0.04376 Folds
